From US20140121168A1, “ANTAGONISTS OF TRPV1 RECEPTOR” (ANTAGONISTS OF TRPV1 RECEPTOR, priority 2011, published 2014)

Protein sequences, listed by entry. Tags and fused reporters are not part of them.
UniProt Q8NER1, whole entry: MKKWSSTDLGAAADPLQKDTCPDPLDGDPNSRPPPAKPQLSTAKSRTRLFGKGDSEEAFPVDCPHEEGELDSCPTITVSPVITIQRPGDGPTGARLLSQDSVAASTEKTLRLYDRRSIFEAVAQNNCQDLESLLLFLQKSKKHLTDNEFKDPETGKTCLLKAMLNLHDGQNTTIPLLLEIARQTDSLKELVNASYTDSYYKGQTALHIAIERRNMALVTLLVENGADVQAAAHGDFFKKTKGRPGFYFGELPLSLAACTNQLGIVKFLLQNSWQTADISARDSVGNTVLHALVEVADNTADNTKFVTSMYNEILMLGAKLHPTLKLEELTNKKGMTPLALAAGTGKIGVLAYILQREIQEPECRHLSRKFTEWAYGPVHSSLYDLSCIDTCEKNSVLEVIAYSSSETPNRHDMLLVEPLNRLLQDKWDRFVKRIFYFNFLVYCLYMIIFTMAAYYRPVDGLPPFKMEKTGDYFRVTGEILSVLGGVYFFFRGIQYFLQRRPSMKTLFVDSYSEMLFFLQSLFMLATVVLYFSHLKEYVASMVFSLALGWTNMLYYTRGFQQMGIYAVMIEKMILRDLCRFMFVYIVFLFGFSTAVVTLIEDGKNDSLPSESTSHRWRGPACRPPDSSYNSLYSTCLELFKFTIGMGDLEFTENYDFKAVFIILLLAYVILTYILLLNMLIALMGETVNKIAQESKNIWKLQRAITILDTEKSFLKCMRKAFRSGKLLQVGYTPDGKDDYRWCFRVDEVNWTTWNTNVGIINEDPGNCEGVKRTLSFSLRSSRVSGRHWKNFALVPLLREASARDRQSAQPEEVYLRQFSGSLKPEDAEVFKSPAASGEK

Molecular target: TRPV1 (Homo sapiens, UniProt Q8NER1)
Assay: TRPV1 assays, inhibition of capsaicin response (cell line not stated for the IC50 values)

Question: How did the IC50 turn out when `C/C=C1\NC(=O)[C@H](C)NC(=O)[C@H](C(C)C)NC(=O)[C@H](NC(=O)[C@H](Cc2ccccc2)NC(=O)[C@@H](CC(C)C)NC(=O)[C@@H](Cc2ccccc2)NC(C)=O)[C@@H](C)OC1=O` [compound 1, A-3302-B] was run?
Answer: The IC50 was 1320 µM.
